# According to US6673801B1, “Dihydroxyhexanoic acid derivatives” (Pfizer Inc., priority 1998, dated 2004):
# Conditions: pH 7
compound,measurement,value
CC(C)(O)CC[C@H](C[C@H](O)[C@H](Cc1ccccc1)NC(=O)c1cnc2c(F)c(F)ccc2c1)C(N)=O [Example 3],Solubility,>250 µg/mL
